Drawing on patent US20240252686A1 (SKYLINE THERAPEUTICS, published 2024), this text covers IC50 for one substance.

Sequences of proteins named here, by UniProt entry; tags and fusion partners are left off. A line that says so, or that is headed by a name, gives the form on record, which may keep a tag or linker.
UniProt P15692, other isoform, or with tags, fused parts or gaps limits assumed: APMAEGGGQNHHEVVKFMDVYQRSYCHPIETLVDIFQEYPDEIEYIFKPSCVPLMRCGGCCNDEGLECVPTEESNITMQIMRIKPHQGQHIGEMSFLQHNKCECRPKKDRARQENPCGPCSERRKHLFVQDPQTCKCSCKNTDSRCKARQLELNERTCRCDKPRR

pIC50: −log10 of the molar value.

The term pIC50 denotes the IC50 on a negative log10 scale, so that one unit is a factor of ten.

This test addresses VEGFA-165 (R&D systems 293-VE/CF) (human) (UniProt P15692). Kind of test: competitive ELISA as in Example 7: inhibition of VEGFR2/KDR Fc binding to coated VEGFA-165.

In turn, Lucentis (NOVARTIS, SAWE7) (Fab) had a pIC50 of 7.21.
